Data reported in patent EP3494999A1, “PSMA LIGANDS FOR IMAGING AND ENDORADIOTHERAPY” (Technische Universität München, priority 2017, dated 2019).

Chains of the proteins cited; added tags and fusions are not shown. Residues count along the entry.
UniProt P02768, 25-609: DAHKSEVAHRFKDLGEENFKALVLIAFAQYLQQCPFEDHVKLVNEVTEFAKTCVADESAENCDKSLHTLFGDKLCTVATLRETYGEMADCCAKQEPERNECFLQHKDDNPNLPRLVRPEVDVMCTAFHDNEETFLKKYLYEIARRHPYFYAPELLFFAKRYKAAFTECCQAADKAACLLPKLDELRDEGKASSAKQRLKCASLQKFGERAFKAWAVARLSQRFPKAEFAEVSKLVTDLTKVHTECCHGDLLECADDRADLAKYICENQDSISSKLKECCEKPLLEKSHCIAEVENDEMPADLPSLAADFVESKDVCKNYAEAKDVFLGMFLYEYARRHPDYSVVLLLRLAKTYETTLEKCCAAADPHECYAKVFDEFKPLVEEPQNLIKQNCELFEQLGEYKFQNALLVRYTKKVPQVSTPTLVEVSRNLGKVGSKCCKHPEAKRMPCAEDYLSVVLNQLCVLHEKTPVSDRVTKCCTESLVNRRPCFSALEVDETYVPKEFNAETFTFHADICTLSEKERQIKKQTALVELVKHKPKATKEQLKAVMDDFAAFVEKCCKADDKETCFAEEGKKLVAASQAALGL

What was measured:
human serum albumin [1] = molecular target: T1, human serum albumin (Homo sapiens, UniProt P02768); details: literature value of human serum albumin binding (Valko et al. or Yamazaki et al.); cited from earlier work
human serum albumin [2] = molecular target: T1, human serum albumin; experiment: Literature HSA binding of the reference substances used to calibrate the HSA column; details: logarithmic K of human serum albumin binding, from the literature HSA%

NC(=O)N1c2ccccc2C=Cc2ccccc21 [Carbamazepine]
Lit. HSA% (human serum albumin [1]): 75.00% | Log K HSA (human serum albumin [2]): 0.46
